{
  "source": "paper PMC10762035",
  "about": "“Molecular basis of human trace amine-associated receptor 1 activation” (Nature Communications, 2024)",
  "biological_target": "T1, hTA1 (Homo sapiens, UniProt Q96RJ0)",
  "T1 sequence (Q96RJ0 1-339)": "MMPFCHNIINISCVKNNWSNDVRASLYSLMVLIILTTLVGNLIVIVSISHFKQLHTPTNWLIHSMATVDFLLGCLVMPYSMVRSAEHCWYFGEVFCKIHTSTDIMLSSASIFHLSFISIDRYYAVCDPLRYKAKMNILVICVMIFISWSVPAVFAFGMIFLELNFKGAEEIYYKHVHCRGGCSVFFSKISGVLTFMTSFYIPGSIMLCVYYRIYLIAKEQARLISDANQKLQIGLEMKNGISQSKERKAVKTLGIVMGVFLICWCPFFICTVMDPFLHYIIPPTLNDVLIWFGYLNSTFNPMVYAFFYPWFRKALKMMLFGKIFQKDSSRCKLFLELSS",
  "assay": "GloSensor cAMP accumulation assay, concentration response, wild-type hTA1 in transfected HEK293T cells;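 further: luminescence read after 30 min compound exposure at room temperature in cells preloaded with D-Luciferin, reflecting Gs-driven cAMP rise, efficacy scaled to the maximal β-PEA response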",
  "type": "cell-based",
  "design": "expressed in transfected cells; host or cells: HEK293T",
  "conditions": "log[Compound], M = -6; replicate wells",
  "data": [
    {"smiles": "CNC[C@H](O)c1ccc(O)c(O)c1", "note": "[epinephrine]", "values": [
      {"measurement": "Normalized Luminescence Counts for WT hTA1", "result": 0.177}
    ]}
  ]
}
